{"source": "patent US9079974B2", "about": "“GH-RH analogs with potent agonistic effects” (The University of Miami, priority 2011, dated 2015)", "key": {"[1]": {"target": "T1, GHRH receptor (Homo sapiens, UniProt Q02643)", "T1 construct": "Normal human pituitaries were purchased from the National Hormone and Peptide Program; tissue National Hormone and Peptide Program (A. F. Parlow); host or cells: normal human pituitary, membrane fraction", "T1 sequence (Q02643 23-423)": "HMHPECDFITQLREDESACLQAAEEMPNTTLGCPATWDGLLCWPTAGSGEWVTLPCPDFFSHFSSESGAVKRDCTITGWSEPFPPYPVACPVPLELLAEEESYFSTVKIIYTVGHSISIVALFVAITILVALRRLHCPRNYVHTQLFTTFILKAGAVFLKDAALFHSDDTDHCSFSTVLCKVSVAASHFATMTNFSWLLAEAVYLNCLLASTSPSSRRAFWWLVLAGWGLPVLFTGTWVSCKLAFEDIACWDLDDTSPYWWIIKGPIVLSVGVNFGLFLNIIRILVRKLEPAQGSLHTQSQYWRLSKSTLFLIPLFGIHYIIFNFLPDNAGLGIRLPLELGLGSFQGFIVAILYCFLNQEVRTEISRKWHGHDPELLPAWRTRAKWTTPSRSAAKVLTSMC", "assay": "GHRH receptor binding, [His1,125I-Tyr10,Nle27]hGHRH(1-32)NH2 ligand competition, human pituitary membrane homogenates (Table 6)", "conditions": "human pituitary membranes", "description": "(§1) Receptor binding assay Ligand competition assay with ^125I-labeled [His^1, Nle^27]hGH-RH(1-32)-NH2 was used to determine the binding affinities of the novel hGH-RH agonists to membrane receptors of rat anterior pituitary cells. The methods used have been described in detail (Halmos G, et al. Receptor 3: 87-97, 1993), here by incorporated by reference. Briefly, radioidonated [His^1, Nle^27]hGH-RH(1-32)-NH2 is prepared by the chloramines-T method. […] Relative affinities were compared to hGH-RH(1-29) and/or analog JI-38 (Izdebski J, et al. Proc. Natl. Acad. Sci. 92: 4872-4876, 1995) and calculated as the ratio of IC50 of the tested peptide to the IC50 of the standard. IC50 is the dose of the tested peptides causing 50% inhibition of specific binding to receptors.\n(§2) Preparation of human pituitary membrane fraction and receptor binding of GHRH agonists were performed as previously described, by using a sensitive in vitro ligand competition assay based on binding of ^125I-labeled [His^1, Nle^27]hGHRH(1-32)NH2 to human pituitary membrane homogenates. Normal human pituitaries were purchased from the National Hormone and Peptide Program (A. F. Parlow, Los Angeles, County Harbor—UCLA Medical Center, Torrance, Calif.)."}, "[2]": {"target": "T1, GHRH receptor", "assay": "GHRH receptor binding, 125I-labeled JV-1-42 ligand competition, human pituitary membrane homogenates (Table 5)", "conditions": "human pituitary membranes", "description": "as §1\nas §2, with “JV-1-42” for “[His^1, Nle^27]hGHRH(1-32)NH2”, “Harbor-UCLA” for “Harbor—UCLA”, “Calif.). […]” for “Calif.).”\nThe final binding affinities were expressed as IC50 values and were calculated by using the LIGAND PC computerized curve-fitting program of Munson and Rodbard as modified by McPherson."}}, "data": [{"substance": "hGH-RH(1-29)NH2 [GHRH (1-29)]", "values": [{"measurement": "IC50", "setting": "[1]", "value": 5.92, "unit": "nM"}, {"measurement": "IC50", "setting": "[2]", "value": 4.06, "unit": "nM"}]}]}
